The record followed here is ChEMBL document CHEMBL1129750, “Bicyclic N-hydroxyurea inhibitors of 5-lipoxygenase: pharmacodynamic, pharmacokinetic, and in vitro metabolic studies characterizing N-hydroxy-N-(2,3-dihydro-6-(phenylmethoxy)-3-benzofuranyl)urea” (J Med Chem, 1996).

The test addresses T1, Polyunsaturated fatty acid 5-lipoxygenase (Rattus norvegicus, UniProt P12527).
T1 sequence (P12527 whole entry): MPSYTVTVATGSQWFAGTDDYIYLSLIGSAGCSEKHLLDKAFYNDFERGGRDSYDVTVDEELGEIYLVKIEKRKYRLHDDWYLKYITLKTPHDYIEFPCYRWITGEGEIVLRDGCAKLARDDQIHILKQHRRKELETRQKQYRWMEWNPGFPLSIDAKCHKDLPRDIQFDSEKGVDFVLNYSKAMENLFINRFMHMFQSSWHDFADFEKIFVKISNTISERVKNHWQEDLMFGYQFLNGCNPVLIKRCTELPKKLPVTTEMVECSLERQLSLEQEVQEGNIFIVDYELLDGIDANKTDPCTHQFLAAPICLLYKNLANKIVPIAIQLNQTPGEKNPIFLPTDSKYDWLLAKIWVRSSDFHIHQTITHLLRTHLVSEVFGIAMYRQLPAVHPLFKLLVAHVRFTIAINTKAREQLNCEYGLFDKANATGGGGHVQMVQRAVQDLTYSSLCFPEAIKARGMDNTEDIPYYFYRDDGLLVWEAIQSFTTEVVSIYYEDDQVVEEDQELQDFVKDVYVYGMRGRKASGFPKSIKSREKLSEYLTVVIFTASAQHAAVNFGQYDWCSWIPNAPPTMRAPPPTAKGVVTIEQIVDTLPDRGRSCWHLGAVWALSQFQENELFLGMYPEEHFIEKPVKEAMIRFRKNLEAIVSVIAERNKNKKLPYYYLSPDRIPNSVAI
As to the kind of experiment: Inhibitory activity against rat 5-lipoxygenase by using continuous oxygen consumption assay. In outline:
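Semipurified cytosolic 5-LO from rat basophilic leukemia (RBL-1) cells; continuous oxygen-electrode assay of oxygen consumption; IC50.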

A word on the IC50: it is the concentration at which inhibition is half-maximal.

In turn, `Cc1c2n(c3ccc(Oc4ccccc4)cc13)CCC2N(O)C(N)=O` (stereo unspecified) had an IC50 of 450 nM.
